Here are results for two compounds from patent publication US9616075B2, “Method of treating and preventing brain impairment using Na+-K+-2Cl-cotransporter isoform 1 inhibitors” (University of Rochester, priority 2012, dated 2017).

The test system of this test is awake mice. The experiment in a line: Myoclonic event (ME) frequency on EEG in awake mice. The format is in vivo, mouse. Particulars: cortical KCl (12.5 mM) ± bumetanide.

Consider `[Cl-].[K+]` [KCl], for which the ME frequency came out at 0.78±0.05 ME min^−1.

In the case of `CCCCNc1cc(C(=O)O)cc(S(N)(=O)=O)c1Oc1ccccc1` [bumetanide], the ME frequency came out at 0.13±0.03 ME min^−1.
